Measured values published in patent US12613237B2, “Biosensors for detecting arrestin signaling” (MONTANA MOLECULAR, LLC, priority 2018, dated 2026).

Key:
angiotensin II receptor = biological target: T1, angiotensin II receptor (Homo sapiens, UniProt P30556); assay type: cell-based; conditions: 15 minute time span, HEK293T cells (FIG. 7A)
T1 construct: expressed in transfected cells; host or cells: HEK293T

[1] = biological target: T2, Angiotensin II receptor type 1 (AT1) (Homo sapiens, UniProt P30556); test: Red DAG biosensor fluorescence (Gq signaling) in AT1-expressing HEK293T cells; assay type: cell-based; conditions: AT1-expressing HEK293T cells (FIG. 5A/5B)
T2 construct: expressed in transfected cells; host or cells: HEK293T

[2] = biological target: Angiotensin II receptor type 1 (Homo sapiens, UniProt P30556); test: BArr 5A arrestin biosensor fluorescence, time-lapse imaging of transfected HEK293T cells; conditions: Angiotensin II receptor type 1, normalized fluorescence (FIG. 4)
[3] = biological target: T2, Angiotensin II receptor type 1 (AT1); assay type: cell-based; conditions: AT1-expressing HEK293T cells, BArr L1-3 B8 (FIG. 5A/5B)

arrestin sensor response over time (speed) (angiotensin II receptor): fastest response | response in the DAG sensor (red fluorescence) [1]: rapid increase in DAG | tau of BArr 5A biosensor response [2]: 16 s | response in the arrestin sensor (green fluorescence) [3]: rapid response
Substance: Angiotensin II
